Test [1] concerns the target MNK1a (Homo sapiens (Human), UniProt Q9BUB5). Description: MNK1 in vitro kinase assay (Assay 3), Z'-LYTE. The class given is biochemical.
The target of test [2] is MNK2a (Homo sapiens (Human), UniProt Q9HBH9). Description: MNK2a in vitro kinase assay (Assay 2), ADP-Glo. The class given is biochemical. The following applies: read-out: MNK2 IC50.

By UniProt entry, the sequences of proteins in these tests, tags left out. Chains listed by the source or under a name are the forms on record and can include a tag or linker.
UniProt Q9BUB5, with tags, fused parts or gaps limits assumed: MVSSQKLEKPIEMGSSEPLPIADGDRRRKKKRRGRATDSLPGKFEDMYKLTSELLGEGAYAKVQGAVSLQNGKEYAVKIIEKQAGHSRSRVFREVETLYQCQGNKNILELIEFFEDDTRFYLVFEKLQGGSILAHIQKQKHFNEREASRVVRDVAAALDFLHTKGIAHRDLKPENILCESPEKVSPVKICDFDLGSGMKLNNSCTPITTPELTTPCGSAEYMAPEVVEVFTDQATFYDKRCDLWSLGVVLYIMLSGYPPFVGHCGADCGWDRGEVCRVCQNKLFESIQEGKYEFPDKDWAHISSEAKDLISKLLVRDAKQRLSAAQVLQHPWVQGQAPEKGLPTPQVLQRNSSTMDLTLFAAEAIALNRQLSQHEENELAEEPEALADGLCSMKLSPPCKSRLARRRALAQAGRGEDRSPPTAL
UniProt Q9HBH9, whole entry: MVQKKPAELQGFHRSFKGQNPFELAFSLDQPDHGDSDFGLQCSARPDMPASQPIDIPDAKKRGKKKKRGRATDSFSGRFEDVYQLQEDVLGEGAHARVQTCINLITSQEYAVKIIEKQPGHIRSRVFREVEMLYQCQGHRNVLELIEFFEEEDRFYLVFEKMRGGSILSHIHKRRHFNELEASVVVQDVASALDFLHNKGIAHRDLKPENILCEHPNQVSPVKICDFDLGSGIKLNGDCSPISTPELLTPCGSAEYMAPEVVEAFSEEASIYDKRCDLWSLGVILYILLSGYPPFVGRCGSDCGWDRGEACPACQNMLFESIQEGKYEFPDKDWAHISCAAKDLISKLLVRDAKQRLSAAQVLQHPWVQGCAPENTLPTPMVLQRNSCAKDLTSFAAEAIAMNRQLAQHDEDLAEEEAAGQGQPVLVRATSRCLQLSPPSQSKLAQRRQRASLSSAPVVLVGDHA

With `Cc1cc(N=S2(=O)CCCC2)cc2ncnc(Nc3ccc(F)cc3O[C@@H]3COC[C@H]3O)c12`, in test [1] (compound concentration of 1 μM), the “MNK1 % INH” value came to 95%. Further, in test [2], the 50% inhibitory concentration (IC50) is 4 nM. As for `Cc1cc(N=S2(=O)CCCC2)cc2ncnc(Nc3cccnc3O[C@@H]3COC[C@H]3O)c12`, in test [1] (read-out: MNK1 IC50), the IC50 came out at 61 nM.

Values taken from patent US10093660B2, “Sulfoximine substituted quinazolines for pharmaceutical compositions” (EVOTEC INTERNATIONAL GMBH, priority 2013, dated 2018).
